The results in this text go back to ChEMBL document CHEMBL1275523 (Antimicrob Agents Chemother, 2008).

Test [1] addresses T1, Sialidase-4 (Homo sapiens, UniProt Q8WWR8).
T1 sequence (Q8WWR8 whole entry): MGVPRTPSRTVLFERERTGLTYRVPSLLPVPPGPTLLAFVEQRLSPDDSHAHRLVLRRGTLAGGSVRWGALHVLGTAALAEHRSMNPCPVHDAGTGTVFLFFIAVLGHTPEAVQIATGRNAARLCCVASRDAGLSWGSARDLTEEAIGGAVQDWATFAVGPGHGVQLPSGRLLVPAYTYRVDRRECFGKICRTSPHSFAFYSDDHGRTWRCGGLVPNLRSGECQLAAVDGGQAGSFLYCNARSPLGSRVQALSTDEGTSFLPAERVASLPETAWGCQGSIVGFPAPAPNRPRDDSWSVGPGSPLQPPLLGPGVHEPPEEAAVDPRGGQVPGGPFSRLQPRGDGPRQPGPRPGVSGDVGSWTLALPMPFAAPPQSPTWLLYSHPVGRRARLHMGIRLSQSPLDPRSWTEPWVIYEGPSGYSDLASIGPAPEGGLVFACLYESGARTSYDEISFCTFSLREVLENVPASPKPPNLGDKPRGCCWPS
In words: Inhibition of human NEU4 expressed in HEK293 cells by fluorometric high-performance liquid chromatography using 4MU-NeuAc substrate. Type of test: cell-based.

The target in test [2] is T1, Sialidase-4. In words: Inhibition of human NEU4 expressed in HEK293 cells by fluorometric high-performance liquid chromatography using ganglioside GM3 substrate. Type of test: cell-based.

pIC50: −log10 of the molar value.

Usually pIC50 stands for the IC50 on a negative log10 scale, so that one unit is a factor of ten.

The compound `CC(=O)N[C@H]1[C@H]([C@H](O)[C@H](O)CO)OC(C(=O)O)=C[C@@H]1O` [NEU5AC2EN] showed a pIC50 against Sialidase-4 [1] of 4.14.

Regarding `CC(=O)N[C@H]1[C@H]([C@H](O)[C@H](O)CO)OC(C(=O)O)=C[C@@H]1N=C(N)N` [ZANAMIVIR], the results for the pIC50 against Sialidase-4 [1] and at Sialidase-4 [2] were 3.31 and 3.16, respectively.
